Literature values as cited in US6482800B1, “Methods to stimulate angiogenesis” (The University of Southern California, priority 1998, dated 2002).

Target: T1, AT2 receptor (Homo sapiens, UniProt P50052)
T1 sequence (P50052 1-363): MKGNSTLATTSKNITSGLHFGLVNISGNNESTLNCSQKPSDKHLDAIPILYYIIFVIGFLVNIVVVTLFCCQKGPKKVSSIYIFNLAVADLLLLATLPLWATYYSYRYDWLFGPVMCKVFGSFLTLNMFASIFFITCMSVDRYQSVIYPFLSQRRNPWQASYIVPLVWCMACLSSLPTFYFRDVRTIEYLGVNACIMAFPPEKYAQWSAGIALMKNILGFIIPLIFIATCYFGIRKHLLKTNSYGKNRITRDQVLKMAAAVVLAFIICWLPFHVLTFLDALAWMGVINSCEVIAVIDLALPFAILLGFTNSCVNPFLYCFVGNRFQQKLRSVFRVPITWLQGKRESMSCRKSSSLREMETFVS
Settings: experimental models of the cited literature; cited from earlier work

## Asp-Arg-Val-Tyr-Ile-Xaa-Pro-Phe [(p-NH2-Phe) 6-AII]
  Binding characteristics: comparable to AT2 antagonists
